“Also recorded” adds a separate entry of the source.

In one series the test system is corn. The series is described as follows: Boron absorption into corn leaf after foliar application, growth stage V5 (Example 4). The method, then:
Each solution was applied independently of one another at these rates, and the applications emulated commercial application conditions, with 30-inch spacings. The test solutions were applied to three different fields to allow for data replication. The corn was at growth stage V5 during the test. Each test solution was evenly applied using a portable foliar applicator ([…] M18 sprayer with a four-gallon tank). Application time per row was recorded to allow for the calculation of an average application rate of the applicator. Any remaining application solution was weighed to allow for the exact calculation of applied solution per acre (converted below to ounces per acre). The solution application rates are reported below in Table 11 and boron application rates are reported below in Table 12. Applications were done in the heat of the day (96° F.), with minimal wind to preclude drift. Control strips for each product at both application rates were identified, and tissue samples from the control strips were collected to reflect an application rate of 0.00 ounces of product per 68 ounces of water.
Tissues were collected after two days using standard tissue collection procedures. Twelve top collar leaves were collected per row. The leaf samples were placed in paper bags and sent to a commercial lab for leaf mineral analysis using ICP-AA.
The application rates reported above Table 11 were adjusted by the concentration of the applied product so that the data could be compared on an equivalent basis, which are reported in Table 12. Tissue boron was regressed against the adjusted applied rates using the Fit Y×X model of SAS JMP (v. 15.0). The Experimental Unit was Field.
Five chemical compounds containing boron were evaluated. The slope of the line was defined according to the following equation: […]

A short description of series [1]: Precipitation / salting out of boron:amino acid solutions. Format: physicochemical. Particulars: during or after reaction. The method, then:
In order to create the solutions provided in Table 2, tap water was first placed into a 500-mL beaker, and the beaker was placed on a hot plate with a magnetic stirrer. A stir bar was then placed inside the beaker and the magnetic stirrer was turned to setting 8. A thermocouple was also inserted into the water in order to measure the temperature of the water. Once the initial temperature was measured, the mineral reactant was poured into the water and a stopwatch was started. The temperature of the solution was measured at 30-second increments. Upon dissolution of the mineral reactant, the amino acid (in this Example, glycine) was added to the solution and the temperature and time of addition were recorded. The end point of the coordination reaction was determined to be the point when (a) all solute was dissolved and (b) the temperature of the solution stabilized.
To mix the solutions, tap water was first placed into a 500-mL beaker, and the beaker was placed on a hot plate with a magnetic stirrer. […] The temperature was measured in 30-second increments. When all of the sodium borate dissolved, lysine was added and the temperature and time of the addition were recorded. The end point of the coordination reaction was recorded as the point when (1) all solute was dissolved and (2) the temperature of the solution stabilized. […]

For boron glycinate, the “boron absorption less than boric acid” value in the series with corn (corn V5, Example 4) worked out at 0.51 ppm/oz B. The “decrease of boron absorbed into leaf tissue compared to boric acid” value with corn (corn V5, Example 4) worked out at 0.51 ppm. Further, the “B Absorption, ppm/oz applied B” value with corn (corn V5, foliar application, top collar leaves collected after two days, slope of tissue boron vs applied boron) worked out at 4.07 ppm/oz applied B. The entries for the “precipitation / salting out from aqueous solution” value in series [1] and in series [1] (listed as glycine:boron compound) were “insoluble crystal structure precipitated; also recorded: irreversible precipitation of boric acid from the solution” and “precipitates once the reaction has come to completion”, respectively.

For the origin of these results see patent US20260193149A1, “[…] USEFUL MINERAL AMINO ACID COMPLEXES” (Statera Ag, LLC, priority 2022, published 2026).
